Values of other authors, collected in patent publication US12274284B2, “High-energy food supplement based on inverted sugars and ergogenic products for use in physical activity and method for producing same” (priority 2019, dated 2025).

Experiments:
[1] = 0.03 g/kg and 5 g/day, eight weeks of resisted exercises
[2] = in vivo

methyl-guanidinoacetic acid [creatine]
kidney and liver function [1]: does not change the kidney or liver function | strength relatively to the control group [2]: considerably increased strength
